Key:
[1] = target: Atto643-labeled his6-β1 integrin cytoplasmic tail peptide; experiment: FRAP of the tethered partner on supported lipid bilayers (slowdown of diffusion); his6-β1 tails tethered to DGS-NTA-Ni on 5% PIP3 supported lipid bilayer; 1 μM kindlin or 1 μM talin, 30-min incubation; HEPES buffer pH 7.4, 150 mM KCl, 2.5 μM ZnCl2; t1/2_fast against β1 tails alone
[2] = target: Atto643-labeled his6-β1 integrin cytoplasmic tail peptide; experiment: FRAP of the tethered partner on supported lipid bilayers (slowdown of diffusion); his6-β1 tails tethered to DGS-NTA-Ni on 5% PIP2 supported lipid bilayer; 1 μM kindlin or 1 μM talin, 30-min incubation; HEPES buffer pH 7.4, 150 mM KCl, 2.5 μM ZnCl2; t1/2_fast against β1 tails alone

fold slowdown of β1 tail diffusion against β1 tails alone [1]: 1.8 times
fold slowdown of β1 tail diffusion against β1 tails alone [2]: 2.3 times
Substance: His-tagged talin-1, Q9Y490 1-2541

Source: article PMC13507320
